This test can be described thus: phase 1/2 study in relapsed/refractory ITP (NCT03395210), safety. The note with it: single patient.

In the case of `CC(C)(C=C(C#N)C(=O)N1CCC[C@@H](n2nc(-c3ccc(Oc4ccccc4)cc3F)c3c(N)ncnc32)C1)N1CCN(C2COC2)CC1` (mixture of isomers) [rilzabrutinib, (R)-2-[3-[4-amino-3-(2-fluoro-4-phenoxy-phenyl)pyrazolo[3,4-d]pyrimidin-1-yl]piperidine-1-carbonyl]-4-methyl-4-[4-(oxetan-3-yl)piperazin-1-yl]pent-2-enenitrile], the “Platelet Count Prior to Rescue Medication” value by setting is: (300 mg bid, baseline 3 × 10^9/L, C2D1) 1.4e+10 L⁻¹; (400 mg bid, baseline 21 × 10^9/L, C4D1) 1.6e+10 L⁻¹.

For the origin of these results see patent US20260364079A1 (Principia Biopharma Inc., priority 2022, published 2026).
